For one compound, IC50 results are on record in ChEMBL document CHEMBL1145304 (Bioorg Med Chem Lett, 2006).

Amino acid sequences for entries named in this document (tags omitted).
UniProt Q01959, whole entry, looked up: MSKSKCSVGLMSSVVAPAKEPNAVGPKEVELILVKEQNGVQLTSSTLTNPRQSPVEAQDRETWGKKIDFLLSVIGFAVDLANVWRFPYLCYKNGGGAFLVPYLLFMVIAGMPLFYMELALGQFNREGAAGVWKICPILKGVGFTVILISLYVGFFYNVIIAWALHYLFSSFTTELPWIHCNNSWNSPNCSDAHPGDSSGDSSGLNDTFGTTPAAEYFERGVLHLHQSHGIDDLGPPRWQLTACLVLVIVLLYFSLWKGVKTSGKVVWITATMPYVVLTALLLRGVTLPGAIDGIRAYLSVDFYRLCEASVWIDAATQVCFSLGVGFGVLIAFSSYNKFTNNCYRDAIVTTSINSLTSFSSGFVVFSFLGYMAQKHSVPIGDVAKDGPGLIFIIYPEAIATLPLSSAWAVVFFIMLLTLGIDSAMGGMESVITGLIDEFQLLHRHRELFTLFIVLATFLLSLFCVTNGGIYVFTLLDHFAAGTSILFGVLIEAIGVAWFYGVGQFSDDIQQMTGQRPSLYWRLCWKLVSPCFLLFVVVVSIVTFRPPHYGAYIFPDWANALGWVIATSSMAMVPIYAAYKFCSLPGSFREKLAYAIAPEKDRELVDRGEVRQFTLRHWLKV
UniProt P31645, whole entry, looked up: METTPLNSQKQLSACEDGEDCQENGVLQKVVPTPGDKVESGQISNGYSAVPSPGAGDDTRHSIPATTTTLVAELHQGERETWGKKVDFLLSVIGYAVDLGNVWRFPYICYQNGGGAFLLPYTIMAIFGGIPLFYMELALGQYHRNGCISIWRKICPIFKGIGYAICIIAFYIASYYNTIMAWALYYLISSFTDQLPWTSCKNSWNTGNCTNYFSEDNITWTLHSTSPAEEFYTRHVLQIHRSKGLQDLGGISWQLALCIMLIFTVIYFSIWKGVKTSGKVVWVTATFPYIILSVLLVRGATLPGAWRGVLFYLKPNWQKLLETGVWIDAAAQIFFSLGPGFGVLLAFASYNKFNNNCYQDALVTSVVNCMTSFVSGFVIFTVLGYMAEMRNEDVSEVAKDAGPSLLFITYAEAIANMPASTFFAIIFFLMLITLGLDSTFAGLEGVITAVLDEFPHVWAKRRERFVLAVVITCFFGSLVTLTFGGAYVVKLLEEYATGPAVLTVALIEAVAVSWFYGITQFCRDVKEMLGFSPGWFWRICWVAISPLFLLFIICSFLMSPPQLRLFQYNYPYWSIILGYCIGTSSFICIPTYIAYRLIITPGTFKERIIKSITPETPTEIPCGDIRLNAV
UniProt P23975, whole entry, looked up: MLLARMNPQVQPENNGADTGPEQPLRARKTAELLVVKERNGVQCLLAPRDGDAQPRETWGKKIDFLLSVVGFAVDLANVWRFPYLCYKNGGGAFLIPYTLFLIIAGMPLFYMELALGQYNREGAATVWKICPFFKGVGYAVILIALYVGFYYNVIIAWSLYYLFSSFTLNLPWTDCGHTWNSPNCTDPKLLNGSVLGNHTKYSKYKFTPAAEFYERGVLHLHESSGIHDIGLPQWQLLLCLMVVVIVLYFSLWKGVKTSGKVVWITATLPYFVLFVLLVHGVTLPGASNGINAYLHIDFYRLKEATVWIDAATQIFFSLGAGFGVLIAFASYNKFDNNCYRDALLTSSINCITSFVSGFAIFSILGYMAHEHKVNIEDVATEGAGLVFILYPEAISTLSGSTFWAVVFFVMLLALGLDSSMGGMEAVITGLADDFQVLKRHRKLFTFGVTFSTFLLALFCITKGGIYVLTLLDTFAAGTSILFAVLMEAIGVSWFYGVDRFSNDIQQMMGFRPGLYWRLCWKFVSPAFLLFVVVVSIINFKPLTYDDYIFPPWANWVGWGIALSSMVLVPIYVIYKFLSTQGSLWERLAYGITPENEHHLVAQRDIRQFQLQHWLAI

The target of test [1] is Sodium-dependent dopamine transporter (Homo sapiens, UniProt Q01959). The note with it: hek293.
In test [2] the target is Sodium-dependent serotonin transporter (Homo sapiens, UniProt P31645). Kind of test: Inhibition of [3H]5-HT reuptake at 5HT transporter in HEK293 cells.
The target in test [3] is Sodium-dependent noradrenaline transporter (Homo sapiens, UniProt P23975). Particulars: hek293.

One may read the IC50 as the point on the concentration scale where inhibition reaches its midpoint. Take `Clc1cccc(Cl)c1CC(c1ccccc1)N1CCNCC1` (stereo not drawn): the IC50 in test [1] was determined as 0.97 µM; in test [2], 0.012 µM; in test [3], 0.082 µM.
